# Assay results: patent US9326978B2, “A3 adenosine receptor allosteric modulators” (The United States of America, Represented by the Secretary, …, priority 2006, dated 2016)
# The chains behind the UniProt entries cited, without tags or fusion partners.
# UniProt P0DMS8, whole entry: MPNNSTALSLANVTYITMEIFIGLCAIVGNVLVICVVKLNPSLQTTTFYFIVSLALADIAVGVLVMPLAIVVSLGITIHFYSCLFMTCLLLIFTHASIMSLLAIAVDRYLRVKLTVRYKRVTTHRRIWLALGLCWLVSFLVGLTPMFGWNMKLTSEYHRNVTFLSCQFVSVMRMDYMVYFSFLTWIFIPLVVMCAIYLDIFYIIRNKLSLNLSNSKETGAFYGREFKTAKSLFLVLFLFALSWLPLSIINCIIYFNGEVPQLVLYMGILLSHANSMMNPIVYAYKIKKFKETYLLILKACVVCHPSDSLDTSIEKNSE
# UniProt P30542, whole entry: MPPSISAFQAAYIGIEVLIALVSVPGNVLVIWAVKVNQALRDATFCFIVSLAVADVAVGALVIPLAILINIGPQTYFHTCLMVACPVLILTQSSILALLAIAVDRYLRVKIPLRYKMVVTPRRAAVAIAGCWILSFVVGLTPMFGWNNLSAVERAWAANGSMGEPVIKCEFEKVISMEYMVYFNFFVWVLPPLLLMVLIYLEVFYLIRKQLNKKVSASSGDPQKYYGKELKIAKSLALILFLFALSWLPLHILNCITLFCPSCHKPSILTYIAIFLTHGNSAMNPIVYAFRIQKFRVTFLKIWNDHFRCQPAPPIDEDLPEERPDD
# How the values were obtained:
# [1] = target: human A3ARs (Homo sapiens (Human), UniProt P0DMS8); assay: Dissociation kinetics of [125I]I-AB-MECA from human A3ARs; conditions: 0.5 h, % decrease of dissociation at 30 min, residual binding of [125I]AB-MECA after 30 min = 100%, Table 2, read-out: hA3AR Ag. Dissociation at 10 μM
# Method: The dissociation of [^125I]I-AB-MECA was measured as follows. Membranes (20 μg) were preincubated at 25° C. with 0.5 nM [^125I]I-AB-MECA, in a total volume of 100 μl of Tris-HCl buffer (50 mM, pH 8.0) containing 10 mM MgCl2, and 1 mM EDTA for 60 min. The dissociation was then initiated by the addition of 3 μM Cl-IB-MECA with or without allosteric modulators. The time course of dissociation of total binding was measured by rapid filtration at appropriate time intervals. Nonspecific binding was measured after 60-min incubation in the presence of 3 μM Cl-IB-MECA. Further assay was as described above.
# [2] = target: human A1AR (Homo sapiens (Human), UniProt P30542); assay: Binding assay to the human A1AR ([3H]R-PIA); conditions: [3H]R-PIA (2.0 nM), CHO cells; Table 2; read-out: Ki(hA1AR)
# Method: CHO (Chinese hamster ovary) cells expressing the recombinant human ARs (HEK-293 cells were used for the human A2AAR) were cultured in DMEM and F12 (1:1) supplemented with 10% fetal bovine serum, 100 units/ml penicillin, […] streptomycin and 2 μmol/ml glutamine. Cells were harvested by trypsinization. After homogenization and suspension, cells were centrifuged at 500 g for 10 min, and the pellet was re-suspended in 50 mM Tris.HCl buffer (pH 7.4) containing 10 mM MgCl2. The suspension was homogenized with an electric homogenizer for 10 sec, and was then re-centrifuged at 20,000 g for 20 min at 4° C. The resultant pellets were resuspended in buffer in the presence of 3 Units/mL adenosine deaminase, and the suspension was stored at −80° C. until the binding experiments. The protein concentration was measured using the Bradford assay.
# For binding to the human A1AR, [^3H]R-PIA (2 nM) was incubated with membranes (40 μg/tube) from CHO cells stably expressing the human A1AR at 25° C. for 60 min in 50 mM Tris.HCl buffer (pH 7.4; MgCl2, 10 mM) in a total assay volume of 200 μL. Nonspecific binding was determined using 10 μM of N^6-cyclopentyladenosine. For human A2A AR binding, membranes (20 μg/tube) from HEK-293 cells stably expressing the human A2A AR were incubated with 15 nM [^3H]CGS21680 at 25° C. for 60 min in 200 μL of 50 mM Tris.HCl, pH 7.4, containing 10 mM MgCl2. […]
Ki [2] [µM],SMILES,activity at 10 µM [1] [%]
–,"Clc1ccc(Nc2nc3ccccc3c3[nH]c(C4CCC4)nc23)cc1Cl [Compound 44, N-(3,4-Dichloro-phenyl)-2-cyclobutyl-1H-imidazo[4,5-c]quinolin-4-amine]",116 ± 3
3.85 ± 0.5,"Cc1ccc(Nc2nc3ccccc3c3[nH]c(C4CCCC4)nc23)cc1 [Compound 31, N-(4-Methyl-phenyl)-2-cyclopentyl-1H-imidazo[4,5-c]quinolin-4-amine]",–
